Measured values from ChEMBL document CHEMBL6127053, “Discovery of orally bioavailable phosphonate prodrugs of potent ENPP1 inhibitors for cancer treatment” (Eur J Med Chem, 2024).
Calls of active or inactive are those of the source. The rule behind the calls is not given here.

Target: T1, Ectonucleotide pyrophosphatase/phosphodiesterase family member 1 (Homo sapiens) (UniProt P22413)
T1 sequence (whole entry): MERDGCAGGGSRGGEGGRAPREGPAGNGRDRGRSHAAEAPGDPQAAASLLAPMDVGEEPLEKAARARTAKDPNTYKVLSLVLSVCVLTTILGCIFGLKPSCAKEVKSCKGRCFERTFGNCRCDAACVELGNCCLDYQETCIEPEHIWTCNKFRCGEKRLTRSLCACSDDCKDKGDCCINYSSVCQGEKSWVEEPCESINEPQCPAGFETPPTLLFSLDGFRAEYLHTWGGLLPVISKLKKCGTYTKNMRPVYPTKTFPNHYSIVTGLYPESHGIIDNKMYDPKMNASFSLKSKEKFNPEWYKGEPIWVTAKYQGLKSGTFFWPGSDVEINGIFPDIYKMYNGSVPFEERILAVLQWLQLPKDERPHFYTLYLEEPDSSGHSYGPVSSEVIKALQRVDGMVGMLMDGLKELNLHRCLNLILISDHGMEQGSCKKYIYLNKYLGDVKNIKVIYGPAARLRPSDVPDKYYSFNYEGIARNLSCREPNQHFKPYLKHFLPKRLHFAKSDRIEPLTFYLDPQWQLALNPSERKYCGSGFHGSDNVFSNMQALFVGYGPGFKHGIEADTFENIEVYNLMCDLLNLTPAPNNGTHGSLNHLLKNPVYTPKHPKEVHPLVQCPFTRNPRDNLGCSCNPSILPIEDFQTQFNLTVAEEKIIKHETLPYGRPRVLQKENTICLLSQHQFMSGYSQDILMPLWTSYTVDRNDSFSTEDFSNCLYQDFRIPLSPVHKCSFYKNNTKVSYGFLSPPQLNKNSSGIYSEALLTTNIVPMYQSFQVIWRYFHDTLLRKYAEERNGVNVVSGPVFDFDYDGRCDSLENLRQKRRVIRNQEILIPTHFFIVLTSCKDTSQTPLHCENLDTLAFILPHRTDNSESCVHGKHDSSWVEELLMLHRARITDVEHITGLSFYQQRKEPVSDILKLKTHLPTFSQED
Conditions: THP-1, dose 200.0 nM, time 20.0 hrs

- inhibition: Active
SMILES: COc1cccc2c(N3CCC(CCP(=O)(O)O)CC3)ncnc12
